Laboratory results from patent US20050276812A1, “Antibody-drug conjugates and methods” (Genentech, Inc., priority 2004, published 2005).

Key:
[1] = tested on: HER2 positive tumor (Fo5) allograft; assay: HER2 transgenic explant (Fo5) allograft tumor model; format: in vivo, mice; settings: single injection, versus Vehicle
[2] = 5-day acute toxicity study in rats; format: in vivo, female Sprague-Dawley rats
[3] = tested on: HER2 positive tumor (Fo5) allograft; settings: Fo5 model (Erickson et al U.S. Pat. No. 6,632,979); cited from earlier work

trastuzumab-SIAB-DM1: trastuzumab linked by SIAB linker to DM1
anti-tumor activity / tumor growth [1]: Tumor growth was slowed most

trastuzumab-SPP-DM1: comparison disulfide linker ADC: trastuzumab-SPP-DM1
clinical toxicity ([2]; 22.3 mg/kg (Group 2)): most severe clinical toxicity | body weight ([2]; lower dose, 1860 μg DM1/m2, single injection, 5 days): decline in body weight

trastuzumab: recombinant humanized IgG1 kappa monoclonal antibody binding HER2
anti-tumor activity of antibody alone [3]: does not have significant anti-tumor activity
